The results in this text go back to ChEMBL document CHEMBL5356990, “Overview of CFTR activators and their recent studies for dry eye disease: a review” (RSC Med Chem, 2023).

Chains of the proteins cited; added tags and fusions are not shown. A line that says so, or that is headed by a name, gives the form on record, which may keep a tag or linker.
UniProt P13569, as listed by the source: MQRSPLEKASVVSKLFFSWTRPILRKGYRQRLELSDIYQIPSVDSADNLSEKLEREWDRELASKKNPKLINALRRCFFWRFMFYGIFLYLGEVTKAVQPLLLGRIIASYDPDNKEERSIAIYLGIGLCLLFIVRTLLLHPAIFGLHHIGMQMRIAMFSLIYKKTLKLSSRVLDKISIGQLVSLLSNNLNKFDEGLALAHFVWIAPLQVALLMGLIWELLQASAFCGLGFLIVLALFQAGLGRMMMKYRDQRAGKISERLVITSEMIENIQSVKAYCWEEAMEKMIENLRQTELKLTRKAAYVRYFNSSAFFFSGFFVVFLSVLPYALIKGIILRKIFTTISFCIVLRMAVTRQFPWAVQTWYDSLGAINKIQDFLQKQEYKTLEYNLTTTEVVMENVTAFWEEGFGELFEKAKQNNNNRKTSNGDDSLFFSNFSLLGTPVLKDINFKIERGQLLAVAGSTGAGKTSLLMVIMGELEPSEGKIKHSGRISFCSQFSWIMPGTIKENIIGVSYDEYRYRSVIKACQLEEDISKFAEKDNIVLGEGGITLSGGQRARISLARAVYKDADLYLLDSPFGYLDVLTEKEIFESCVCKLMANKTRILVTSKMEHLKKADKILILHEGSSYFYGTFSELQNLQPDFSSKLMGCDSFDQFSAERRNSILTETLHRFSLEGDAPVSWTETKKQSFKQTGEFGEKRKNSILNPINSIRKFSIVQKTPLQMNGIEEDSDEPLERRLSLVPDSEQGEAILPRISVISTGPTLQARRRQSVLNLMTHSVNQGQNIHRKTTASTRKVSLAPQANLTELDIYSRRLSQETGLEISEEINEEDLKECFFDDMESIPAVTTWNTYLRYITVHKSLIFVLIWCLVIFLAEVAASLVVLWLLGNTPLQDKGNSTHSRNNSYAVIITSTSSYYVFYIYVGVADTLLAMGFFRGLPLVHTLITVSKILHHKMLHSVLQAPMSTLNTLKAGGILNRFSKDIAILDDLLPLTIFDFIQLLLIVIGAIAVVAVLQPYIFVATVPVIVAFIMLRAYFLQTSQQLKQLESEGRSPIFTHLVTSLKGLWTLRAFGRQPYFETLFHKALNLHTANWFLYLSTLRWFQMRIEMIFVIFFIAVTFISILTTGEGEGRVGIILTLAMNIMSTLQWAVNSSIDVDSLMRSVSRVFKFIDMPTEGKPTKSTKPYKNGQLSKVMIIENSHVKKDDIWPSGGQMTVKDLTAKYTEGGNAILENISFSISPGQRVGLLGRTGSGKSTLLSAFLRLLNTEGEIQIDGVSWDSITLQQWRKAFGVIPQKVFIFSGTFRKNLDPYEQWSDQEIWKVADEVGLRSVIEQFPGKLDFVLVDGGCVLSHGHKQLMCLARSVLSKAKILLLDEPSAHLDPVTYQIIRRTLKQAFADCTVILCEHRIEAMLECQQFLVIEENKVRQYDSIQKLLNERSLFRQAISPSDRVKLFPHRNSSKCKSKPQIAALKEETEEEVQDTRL
UniProt P13569, whole entry, looked up: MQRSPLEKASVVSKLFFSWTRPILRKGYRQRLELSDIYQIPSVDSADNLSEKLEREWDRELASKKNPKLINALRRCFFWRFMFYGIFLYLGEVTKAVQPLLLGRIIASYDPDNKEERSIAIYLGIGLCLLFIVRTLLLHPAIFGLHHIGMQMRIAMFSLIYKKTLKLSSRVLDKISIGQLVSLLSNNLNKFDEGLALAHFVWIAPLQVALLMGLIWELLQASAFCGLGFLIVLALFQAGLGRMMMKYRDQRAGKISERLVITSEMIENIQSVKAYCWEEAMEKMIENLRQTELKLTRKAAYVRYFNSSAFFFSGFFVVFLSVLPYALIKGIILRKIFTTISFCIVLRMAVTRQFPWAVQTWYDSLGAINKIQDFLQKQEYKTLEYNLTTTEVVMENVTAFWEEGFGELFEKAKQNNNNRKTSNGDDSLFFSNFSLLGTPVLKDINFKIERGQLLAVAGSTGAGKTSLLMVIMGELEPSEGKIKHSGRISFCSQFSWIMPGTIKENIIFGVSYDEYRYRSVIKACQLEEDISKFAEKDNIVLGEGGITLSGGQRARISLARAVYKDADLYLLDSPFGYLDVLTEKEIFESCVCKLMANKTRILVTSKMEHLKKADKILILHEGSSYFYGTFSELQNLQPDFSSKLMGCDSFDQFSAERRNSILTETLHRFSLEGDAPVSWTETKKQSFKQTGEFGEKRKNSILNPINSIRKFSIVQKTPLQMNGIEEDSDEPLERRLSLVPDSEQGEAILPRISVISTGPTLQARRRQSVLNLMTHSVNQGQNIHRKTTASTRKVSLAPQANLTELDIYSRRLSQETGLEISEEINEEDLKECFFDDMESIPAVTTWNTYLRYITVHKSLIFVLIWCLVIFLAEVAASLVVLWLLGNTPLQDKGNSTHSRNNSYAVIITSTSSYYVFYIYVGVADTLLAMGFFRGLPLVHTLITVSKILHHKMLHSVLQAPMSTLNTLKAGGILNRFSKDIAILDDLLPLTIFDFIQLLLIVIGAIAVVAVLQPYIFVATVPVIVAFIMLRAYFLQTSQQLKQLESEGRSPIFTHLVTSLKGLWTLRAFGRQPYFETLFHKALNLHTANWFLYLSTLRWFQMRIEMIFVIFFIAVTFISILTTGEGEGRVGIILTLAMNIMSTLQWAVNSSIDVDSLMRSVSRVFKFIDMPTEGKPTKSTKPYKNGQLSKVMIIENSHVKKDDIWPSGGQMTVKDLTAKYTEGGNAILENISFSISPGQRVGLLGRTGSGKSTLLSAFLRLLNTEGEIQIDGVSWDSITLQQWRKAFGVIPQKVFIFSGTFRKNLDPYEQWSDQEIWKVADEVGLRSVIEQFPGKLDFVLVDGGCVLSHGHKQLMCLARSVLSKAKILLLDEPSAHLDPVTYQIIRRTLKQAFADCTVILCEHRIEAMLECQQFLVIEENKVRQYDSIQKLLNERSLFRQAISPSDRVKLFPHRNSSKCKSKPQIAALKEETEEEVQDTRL

Common to all, as to conditions: filed as opener
Assay [1] has as its system Cystic fibrosis transmembrane conductance regulator (Homo sapiens), P13569 [F508del]. The assay is described as follows: Activation of CFTR F508del mutant (unknown origin).
For assay [2], the target named is T1, Cystic fibrosis transmembrane conductance regulator (Homo sapiens, UniProt P13569). Kind of assay: Activation of wildtype CFTR chloride channel (unknown origin) expressed in CHO cells. The format is cell-based.
Assay [3] deals with T1, Cystic fibrosis transmembrane conductance regulator. The assay is described as follows: Activation of wildtype CFTR chloride channel (unknown origin) expressed in human Calu-3 cells. In kind it is cell-based.

`CCCCc1c(-c2ccc(O)cc2)[nH]c2nccnc12`: the figures for the Activity in assay [1], in assay [2] and in assay [3] were 111 nM, 140 nM and 140 nM, respectively.
